Literature values, collected in patent US20160165928A1, “METHODS OF REDUCING METHANE EMISSION DERIVED FROM RUMINAL FERMENTATION WHILE SIMULTANEOUSLY REDUCING RISK OF NITRATE INTOXICATION” (Grasp Indústria e Comércio Ltda., priority 2011, published 2016).
This is a selection: effects in other tests are not listed, and their absence says nothing.

Test system: methane produced by rumen fermentation
Settings: uncoated/unprotected salts

## ammonium nitrate
  methane emission in ruminants: reduced methane emission
